Assay results published in PubChem BioAssay AID430 (Sanford-Burnham Center for Chemical Genomics, 2006).
The list shows a part of the results, in another mix than the full data. Results with a measured potency or affinity are listed apart. Calls of active or inactive are those of the source. No stated cut-off is given here; in the data, active means cytotoxicity above about 50%; inactive means the rest.

test: cytotoxicity in HPDE-C7 cells, cell-based, fluorescence, HTS (AID 430); conditions: HPDE-C7 pancreatic duct cells viability, at 10 µM, active compounds read high;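 further: cells exposed to compound for 48 hours before viability readout; 0% = vehicle and 100% = reference cytotoxic drug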

Row | SMILES | cytotoxicity
1 | N#CC1(Nc2ccccc2)CCN(CCc2ccccc2)CC1 | inactive: -5.9%
2 | COc1ccc(NC2CCN(CCc3ccccc3)CC2)c(OC)c1 | inactive: 22.1%
3 | O=C(OC1CN2CCC1CC2)C1c2ccccc2Oc2ccccc21 (stereo unspecified) | inactive: 3.9%
4 | CCC(CO)(C(=O)OC1CN2CCC1CC2)c1ccccc1 (stereo unspecified) | inactive: -7%
5 | CCOc1ncccc1C(=O)NCC1(N2CCOCC2)CCCCC1 | inactive: -3.4%
6 | Fc1ccccc1NC1CCN(Cc2ccccc2)CC1 | inactive: 1.9%
